Assay results: US20070010428A1, “Inhibitors of signal transduction and activator of transcription 3” (priority 2004, published 2007)
pIC50: −log10 of the molar value. Like-named read-outs stand apart in the source and are kept apart here.

Protein sequences, listed by entry. Tags and fused reporters are not part of them.
UniProt P40763, whole entry, species assumed: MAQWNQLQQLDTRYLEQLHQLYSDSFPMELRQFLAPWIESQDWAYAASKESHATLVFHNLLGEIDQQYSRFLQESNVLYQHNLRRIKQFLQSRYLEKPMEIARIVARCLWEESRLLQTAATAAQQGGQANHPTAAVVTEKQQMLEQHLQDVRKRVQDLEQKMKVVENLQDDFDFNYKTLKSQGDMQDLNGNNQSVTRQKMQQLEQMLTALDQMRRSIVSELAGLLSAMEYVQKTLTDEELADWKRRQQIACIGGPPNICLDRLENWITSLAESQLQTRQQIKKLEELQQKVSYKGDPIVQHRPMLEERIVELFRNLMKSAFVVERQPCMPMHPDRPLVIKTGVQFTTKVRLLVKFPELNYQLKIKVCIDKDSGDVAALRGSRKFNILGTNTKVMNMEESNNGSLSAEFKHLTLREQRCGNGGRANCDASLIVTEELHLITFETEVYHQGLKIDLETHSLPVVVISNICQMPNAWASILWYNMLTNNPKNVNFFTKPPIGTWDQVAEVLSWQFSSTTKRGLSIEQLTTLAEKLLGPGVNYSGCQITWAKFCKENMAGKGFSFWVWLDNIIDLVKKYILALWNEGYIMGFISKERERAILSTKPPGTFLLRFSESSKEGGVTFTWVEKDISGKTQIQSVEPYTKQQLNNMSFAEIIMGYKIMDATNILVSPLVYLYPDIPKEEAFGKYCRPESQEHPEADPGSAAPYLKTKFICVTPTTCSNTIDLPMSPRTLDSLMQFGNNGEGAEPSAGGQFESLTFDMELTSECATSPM

Target: Stat3 (Homo sapiens, UniProt P40763)
Assay: EMSA of inhibition of Stat3 dimerization and DNA binding by phosphopeptides
Type: biochemical
Description: To find a lead compound for inhibitor development, a series of phospho-hexapeptides derived from known receptor docking sites for Stat3 were synthesized and assayed for their ability to inhibit Stat3 dimerization and DNA binding using electrophoretic mobility shift assays (EMSA) (Ren et al., 2003). […] SAR experiments were conducted systematically replacing each amino acid. The goal was to find non-peptidic groups that would be stable to phosphatases and proteases, and that would be more hydrophobic to allow greater bioavailability. […] The small peptidomimetics were assayed for their ability to bind to the SH2 domain of Stat3 using fluoresence polarization.
Nuclear extract was extracted as previously described (Andrews and Faller, 1991). Equal amount of nuclear extract protein was then incubated with ^32P labeled high-affinity c-sis-inducible element (hSIE; 5′-[…]-3′ , SEQ ID NO:25) (Santa Cruz). The reactions were performed in a total volume of 24 μl in buffer consisting of 10 mM HEPES (pH 7.8), 50 mM KCl, 1 mM EDTA, 5 mM MgCl2, 10% glycerol, 5 mM dithiothreitol, 1 mg of bovine serum albumin per ml, 0.5 mM phenyl-methylsulfonylflouride, and 1 mM Na3VO4 with 1 μg of poly (dI-dC) and 0.3 ng of ^32P-labeled hSIE. […] The screen was then scanned and the bands showing Stat3-DNA binding were quantified using the Storm System (Molecular Dynamics).

Work on `CC[C@H](C)[C@H](NC(=O)[C@H](Cc1ccc(OP(=O)(O)O)cc1)NC(C)=O)C(=O)N[C@@H](CC(N)=O)C(=O)N[C@@H](CCC(N)=O)C(=O)N[C@@H](CO)C(=O)N[C@H](C(N)=O)C(C)C` [Peptide 3, Y(p)INQSV] yielded a pIC50 (EMSA, averages of two determinations, read-out: IC50 (inhibition of Stat3 dimerization and DNA binding)) of 4.52.
For `CC(=O)N[C@@H](Cc1ccc(OP(=O)(O)O)cc1)C(=O)N[C@@H](Cc1cnc[nH]1)C(=O)N[C@@H](CC(N)=O)C(=O)N[C@@H](CCC(N)=O)C(=O)N1CCC[C@H]1C(=O)N[C@@H](CC(C)C)C(N)=O` [Peptide 4, Y(p)HNQPL], the pIC50 was 3.82.
